Values joined by “and” are separate entries in the source; they are usually repeats but may differ in a detail not shown here. Equal values may be shown once. Read-outs that look alike come from different tables or passages of the source.
Legend:
Format in all cases: cell-based
[1] = tested on: Ba/F3 cells of EGFR-C797S/del19; assay: Drug sensitivity screening at 100 nM, Ba/F3 EGFR-C797S/del19; conditions: for Cell inhibition rate relative to DMSO in C797S/del19 Ba/F3 cells: 100 nM; for viability at 0.1 µM: Mus musculus, BaF3, 72 h, read-out: Relative cell viability (ratio to DMSO control), del19/C797S
[2] = tested on: Ba/F3 cells of EGFR-C797S/T790M/del19; assay: Drug sensitivity screening at 100 nM, Ba/F3 EGFR-C797S/T790M/del19; conditions: for Cell inhibition rate relative to DMSO in C797S/T790M/del19 Ba/F3 cells: 100 nM; for Cell inhibition rate relative to DMSO in C797S/T790M/del19 Ba/F3 cells / Relative cell viability (ratio to DMSO control), del19/T790M/C797S: 72 h, DMSO = 100; for Relative cell viability (ratio to DMSO control), del19/T790M/C797S: 100 nM inhibitor, mean of three independent experiments (Fig. 1a data)
[3] = tested on: Ba/F3 cells expressing EGFR-C797S/L858R; assay: CellTiter-Glo cell viability assay, Ba/F3 EGFR-C797S/L858R; conditions: Mus musculus, BaF3, 72 h
[4] = tested on: phosphorylation of EGFR in Ba/F3 cells expressing EGFR-C797S/T790M/L858R; assay: Western blotting of EGFR signalling, Ba/F3 triple-L858R; conditions: 6 h, up to 1000 nM
[5] = tested on: Ba/F3 cells expressing EGFR-C797S/del19; assay: CellTiter-Glo cell viability assay, Ba/F3 EGFR-C797S/del19; conditions: Mus musculus, BaF3; Table 1a; 72 h
[6] = 100 nM inhibitor, 72 h, DMSO = 100, mean of three independent experiments (Fig. 1a data)
[7] = Supplementary Fig. 8e, read-out: IC50, Ba/F3 C797S/L858R

Compound: CO[C@H]1C[C@@H]2CC[C@@H](C)[C@@](O)(O2)C(=O)C(=O)N2CCCC[C@H]2C(=O)O[C@H]([C@H](C)C[C@@H]2CC[C@@H](OCCO)[C@H](OC)C2)CC(=O)[C@H](C)/C=C(\C)[C@@H](O)[C@@H](OC)C(=O)[C@H](C)C[C@H](C)/C=C/C=C/C=C/1C [Everolimus, everolimus]
- Cell inhibition rate relative to DMSO in C797S/del19 Ba/F3 cells ([1]; 72 h, DMSO = 100, experiment 1): 55.3169
- viability at 0.1 µM [1, 6]: 53.5%

Compound: C=CC(=O)Nc1cc(Nc2nccc(-c3cn(C)c4ccccc34)n2)c(OC)cc1N(C)CCN(C)C [Osimertinib, osimertinib]
- viability at 0.1 µM [1]: 95.8%
- viability at 0.1 µM ([2]; Mus musculus, BaF3, 72 h, read-out: Relative cell viability (ratio to DMSO control), del19/T790M/C797S): 134%

Compound: CC(=O)O[C@H]1C(=O)[C@@]2(C)[C@H]([C@H](OC(=O)c3ccccc3)[C@]3(O)C[C@H](OC(=O)[C@H](O)[C@@H](NC(=O)c4ccccc4)c4ccccc4)C(C)=C1C3(C)C)[C@]1(OC(C)=O)CO[C@@H]1C[C@@H]2O [paclitaxel]
- Cell inhibition rate relative to DMSO in C797S/del19 Ba/F3 cells ([1]; 72 h, DMSO = 100, experiment 1): 52.9536
- Cell inhibition rate relative to DMSO in C797S/del19 Ba/F3 cells ([1]; 72 h, DMSO = 100, experiment 2): 25.364
- viability at 0.1 µM [1, 6]: 42.2%
- Cell inhibition rate relative to DMSO in C797S/T790M/del19 Ba/F3 cells ([2]; experiment 2): 104.896
- Cell inhibition rate relative to DMSO in C797S/T790M/del19 Ba/F3 cells ([2]; experiment 3): 100.035

Compound: CS(=O)(=O)N1CCN(Cc2cc3nc(-c4cccc5[nH]ncc45)nc(N4CCOCC4)c3s2)CC1 [GDC0941]
- Cell inhibition rate relative to DMSO in C797S/T790M/del19 Ba/F3 cells ([2]; experiment 2): 69.7443
- Cell inhibition rate relative to DMSO in C797S/T790M/del19 Ba/F3 cells ([2]; experiment 3): 72.0059

Compound: Cc1nc2ccc(-n3ncc(C(=O)c4cc5ccccc5[nH]4)c3N)cc2[nH]1 [CH5183284]
- Relative cell viability (ratio to DMSO control), del19/C797S [1, 6]: 103.89 and 103.887
- Cell inhibition rate relative to DMSO in C797S/del19 Ba/F3 cells ([1]; 72 h, DMSO = 100, experiment 1): 103.503
- Cell inhibition rate relative to DMSO in C797S/del19 Ba/F3 cells ([1]; 72 h, DMSO = 100, experiment 2): 100.553
- Cell inhibition rate relative to DMSO in C797S/del19 Ba/F3 cells ([1]; 72 h, DMSO = 100, experiment 3): 107.604
- Relative cell viability (ratio to DMSO control), del19/T790M/C797S [2]: 116.81 and 116.805
- Cell inhibition rate relative to DMSO in C797S/T790M/del19 Ba/F3 cells ([2]; experiment 1): 102.347
- Cell inhibition rate relative to DMSO in C797S/T790M/del19 Ba/F3 cells ([2]; experiment 2): 117.224
- Cell inhibition rate relative to DMSO in C797S/T790M/del19 Ba/F3 cells ([2]; experiment 3): 130.844

Compound: COc1cc(N2CCC(N(C)C)CC2)ccc1Nc1ncc(Cl)c(Nc2ccccc2P(C)(C)=O)n1 [AP26113-analog]
- IC50 [3, 7]: 108 nM
- phosphorylation of EGFR and downstream signal pathway, Ba/F3 C797S/T790M/L858R [4]: inhibited the phosphorylation of EGFR

Compound: Cc1cc(C(=O)Nc2nc3cccc(Cl)c3n2[C@@H]2CCCCN(C(=O)/C=C/CN(C)C)C2)ccn1 [EGF-816]
- IC50 [5]: 1240 nM
- IC50 ([3]; Table 1b, read-out: IC50, Ba/F3-EGFR-C797S/L858R): 1660 nM

Compound: C[C@H]1Oc2cc(cnc2N)-c2c(nn(C)c2C#N)CN(C)C(=O)c2ccc(F)cc21 [Lorlatinib, lorlatinib]
- Cell inhibition rate relative to DMSO in C797S/T790M/del19 Ba/F3 cells ([2]; experiment 2): 134.161

Compound: COc1cc2nccc(Oc3ccc(NC(=O)NC4CC4)c(Cl)c3)c2cc1C(N)=O [E7080]
- Relative cell viability (ratio to DMSO control), del19/C797S [1, 6]: 104.33 and 104.333
- Cell inhibition rate relative to DMSO in C797S/del19 Ba/F3 cells ([1]; 72 h, DMSO = 100, experiment 1): 95.2987
- Cell inhibition rate relative to DMSO in C797S/del19 Ba/F3 cells ([1]; 72 h, DMSO = 100, experiment 2): 100.841
- Cell inhibition rate relative to DMSO in C797S/del19 Ba/F3 cells ([1]; 72 h, DMSO = 100, experiment 3): 116.859
- Relative cell viability (ratio to DMSO control), del19/T790M/C797S [2]: 144.87 and 144.865
- Cell inhibition rate relative to DMSO in C797S/T790M/del19 Ba/F3 cells ([2]; experiment 1): 132.448
- Cell inhibition rate relative to DMSO in C797S/T790M/del19 Ba/F3 cells ([2]; experiment 2): 155.081
- Cell inhibition rate relative to DMSO in C797S/T790M/del19 Ba/F3 cells ([2]; experiment 3): 147.066

Compound: COc1cc(N2CCC(N)CC2)ccc1Nc1ncc(Cl)c(-c2c[nH]c3ccccc23)n1 [AZD3463]
- viability at 0.1 µM [1, 6]: 22.1%
- IC50 [3, 7]: 374 nM
- Cell inhibition rate relative to DMSO in C797S/T790M/del19 Ba/F3 cells ([2]; experiment 1): 96.0576

Compound: COc1cc2nccc(Oc3ccc(NC(=O)C4(C(=O)Nc5ccc(F)cc5)CC4)cc3)c2cc1OC [XL184]
- Cell inhibition rate relative to DMSO in C797S/T790M/del19 Ba/F3 cells ([2]; experiment 2): 146.435
- Cell inhibition rate relative to DMSO in C797S/T790M/del19 Ba/F3 cells ([2]; experiment 3): 135.248

Compound: CO[C@H]1C[C@@H]2CC[C@@H](C)[C@@](O)(O2)C(=O)C(=O)N2CCCC[C@H]2C(=O)O[C@H]([C@H](C)C[C@@H]2CC[C@@H](O)[C@H](OC)C2)CC(=O)[C@H](C)/C=C(\C)[C@@H](O)[C@@H](OC)C(=O)[C@H](C)C[C@H](C)/C=C/C=C/C=C/1C [Rapamycin, rapamycin]
- Cell inhibition rate relative to DMSO in C797S/del19 Ba/F3 cells ([1]; 72 h, DMSO = 100, experiment 1): 54.2787
- Cell inhibition rate relative to DMSO in C797S/T790M/del19 Ba/F3 cells ([2]; experiment 2): 29.6091

Compound: Cc1cc(Nc2ncc(Cl)c(Nc3ccccc3S(=O)(=O)C(C)C)n2)c(OC(C)C)cc1C1CCNCC1 [Ceritinib, ceritinib]
- phosphorylation of EGFR and downstream signal pathway, Ba/F3 C797S/T790M/L858R [4]: didn’t suppress the signals

— publication PMC5355811 (Nature Communications, 2017)
